Article PMC4281354, “The opioid receptor pharmacology of GSK1521498 compared to other ligands with differential effects on compulsive reward-related behaviours” (Psychopharmacology, 2014)

Amino acid sequences for entries named in this document (tags omitted).
UniProt P35372, whole entry: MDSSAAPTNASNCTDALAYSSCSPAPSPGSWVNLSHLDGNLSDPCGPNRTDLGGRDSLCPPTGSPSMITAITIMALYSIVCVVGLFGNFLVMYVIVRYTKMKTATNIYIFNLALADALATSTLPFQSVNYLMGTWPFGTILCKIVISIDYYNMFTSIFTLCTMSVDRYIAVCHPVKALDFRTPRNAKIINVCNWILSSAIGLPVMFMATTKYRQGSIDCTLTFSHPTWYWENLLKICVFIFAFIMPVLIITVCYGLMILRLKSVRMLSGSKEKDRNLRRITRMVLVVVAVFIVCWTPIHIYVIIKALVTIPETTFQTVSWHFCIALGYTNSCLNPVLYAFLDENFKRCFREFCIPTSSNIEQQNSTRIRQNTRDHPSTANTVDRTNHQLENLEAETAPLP

Target: MOPr (Homo sapiens, UniProt P35372)
Assay: Basal [35S]GTPγS binding, membranes from CHO cells expressing a low level of MOPr
Format: biochemical

DAMGO
stimulation of [35S]GTPγS binding: over 50%
